The species entered for assay [1] is Homo sapiens. Nature of the assay: Selectivity for human ORL1 receptor over human delta opioid receptor.
For assay [2], the species on record is Homo sapiens. Put plainly: Selectivity for human ORL1 receptor over human mu opioid receptor.
Assay [3] concerns the target Kappa-type opioid receptor (Homo sapiens) (UniProt P41145). Nature of the assay: Activity at human kappa opioid receptor expressed in CHO cells by [35S]GTP-gamma-S binding assay. A general note: Binding of GTPγS marks nucleotide exchange on a G protein.
Assay [4] addresses Mu-type opioid receptor (Homo sapiens) (UniProt P35372). Nature of the assay: Activity at human mu opioid receptor expressed in CHO cells by [35S]GTPgammaS binding assay.
For assay [5], the species on record is Homo sapiens. Nature of the assay: Selectivity for human ORL1 receptor over human kappa opioid receptor.
The target of assay [6] is Delta-type opioid receptor (Homo sapiens) (UniProt P41143). Nature of the assay: Activity at human delta opioid receptor expressed in CHO cells by [35S]GTP-gamma-S binding assay.

Protein sequences, listed by entry. Tags and fused reporters are not part of them.
UniProt P41145, whole entry: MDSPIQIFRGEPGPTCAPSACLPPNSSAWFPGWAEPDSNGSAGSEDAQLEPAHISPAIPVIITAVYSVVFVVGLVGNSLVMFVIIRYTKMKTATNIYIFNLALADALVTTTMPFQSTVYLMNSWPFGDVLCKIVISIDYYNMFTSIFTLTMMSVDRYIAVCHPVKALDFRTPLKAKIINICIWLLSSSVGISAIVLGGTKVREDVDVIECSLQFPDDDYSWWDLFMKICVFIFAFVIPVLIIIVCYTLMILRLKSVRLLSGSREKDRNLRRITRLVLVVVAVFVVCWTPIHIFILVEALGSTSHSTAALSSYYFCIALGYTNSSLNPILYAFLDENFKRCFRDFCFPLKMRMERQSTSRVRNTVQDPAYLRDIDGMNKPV
UniProt P35372, whole entry: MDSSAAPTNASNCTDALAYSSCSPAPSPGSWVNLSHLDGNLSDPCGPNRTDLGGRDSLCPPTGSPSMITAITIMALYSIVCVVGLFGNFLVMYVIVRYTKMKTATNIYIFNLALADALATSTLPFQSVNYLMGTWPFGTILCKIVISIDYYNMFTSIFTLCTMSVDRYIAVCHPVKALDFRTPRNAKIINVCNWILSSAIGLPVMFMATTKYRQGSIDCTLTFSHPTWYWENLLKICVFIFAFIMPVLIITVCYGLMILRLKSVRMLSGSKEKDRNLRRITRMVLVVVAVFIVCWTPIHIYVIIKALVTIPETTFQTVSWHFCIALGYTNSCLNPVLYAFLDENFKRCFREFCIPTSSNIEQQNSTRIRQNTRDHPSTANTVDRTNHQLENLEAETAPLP
UniProt P41143, whole entry: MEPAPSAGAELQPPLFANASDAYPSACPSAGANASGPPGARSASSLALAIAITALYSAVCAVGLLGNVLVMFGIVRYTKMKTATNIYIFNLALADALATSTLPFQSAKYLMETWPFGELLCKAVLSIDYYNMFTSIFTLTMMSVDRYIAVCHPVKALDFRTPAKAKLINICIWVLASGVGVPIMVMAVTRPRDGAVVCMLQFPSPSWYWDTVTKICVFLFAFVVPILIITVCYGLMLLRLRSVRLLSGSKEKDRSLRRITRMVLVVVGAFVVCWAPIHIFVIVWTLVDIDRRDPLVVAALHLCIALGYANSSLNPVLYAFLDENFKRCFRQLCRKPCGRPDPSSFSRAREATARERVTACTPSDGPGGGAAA

As for `CCn1c(=O)n([C@@H]2CCN(CC3CCCCCCC3)C[C@H]2CO)c2ccccc21`, the Ke was determined as 887 nM in the assay listed under Homo sapiens [1]; 89 nM in the assay listed under Homo sapiens [2]; 195 nM in assay [3]; 75.6 nM in assay [4]; 227 nM in the assay listed under Homo sapiens [5]; 754 nM in assay [6].

Values taken from ChEMBL document CHEMBL1143931, “A new synthesis of the ORL-1 antagonist 1-[(3R,4R)-1-cyclooctylmethyl-3-hydroxymethyl-4-piperidinyl]-3-ethyl-1,3-dihydro-2H-benzimidazol-2-one (J-113397) and activity in a calcium mobilization assay” (2008).
